Measurements from ChEMBL document CHEMBL1155799 (Bioorg Med Chem, 2008).

Sequences of proteins named here, by UniProt entry; tags and fusion partners are left off. A change or cut given only in a name is not applied to a line headed by its entry.
UniProt P28223, whole entry: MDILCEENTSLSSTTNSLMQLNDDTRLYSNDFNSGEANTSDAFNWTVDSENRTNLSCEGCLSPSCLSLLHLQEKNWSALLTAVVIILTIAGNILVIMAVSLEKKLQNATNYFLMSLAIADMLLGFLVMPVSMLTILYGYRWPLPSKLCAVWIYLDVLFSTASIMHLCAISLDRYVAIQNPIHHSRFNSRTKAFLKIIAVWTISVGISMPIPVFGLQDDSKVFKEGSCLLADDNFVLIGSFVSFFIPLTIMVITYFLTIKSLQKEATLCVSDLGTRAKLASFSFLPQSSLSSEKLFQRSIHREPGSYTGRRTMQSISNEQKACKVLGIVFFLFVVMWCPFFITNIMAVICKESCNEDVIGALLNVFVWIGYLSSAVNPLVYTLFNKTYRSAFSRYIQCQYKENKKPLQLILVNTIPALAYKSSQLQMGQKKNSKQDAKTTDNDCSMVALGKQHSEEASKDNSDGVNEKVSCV
UniProt P08908, whole entry: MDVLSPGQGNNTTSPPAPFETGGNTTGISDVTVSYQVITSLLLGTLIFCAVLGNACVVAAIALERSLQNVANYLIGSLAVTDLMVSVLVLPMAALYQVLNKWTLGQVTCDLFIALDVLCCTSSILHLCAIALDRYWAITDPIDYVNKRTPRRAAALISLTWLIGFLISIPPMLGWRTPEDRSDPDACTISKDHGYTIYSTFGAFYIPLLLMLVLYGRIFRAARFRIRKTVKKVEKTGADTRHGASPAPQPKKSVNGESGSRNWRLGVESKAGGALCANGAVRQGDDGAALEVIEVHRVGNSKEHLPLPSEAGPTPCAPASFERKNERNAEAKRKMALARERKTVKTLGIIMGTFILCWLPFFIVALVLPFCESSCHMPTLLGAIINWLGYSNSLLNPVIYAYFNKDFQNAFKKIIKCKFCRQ
UniProt P28335: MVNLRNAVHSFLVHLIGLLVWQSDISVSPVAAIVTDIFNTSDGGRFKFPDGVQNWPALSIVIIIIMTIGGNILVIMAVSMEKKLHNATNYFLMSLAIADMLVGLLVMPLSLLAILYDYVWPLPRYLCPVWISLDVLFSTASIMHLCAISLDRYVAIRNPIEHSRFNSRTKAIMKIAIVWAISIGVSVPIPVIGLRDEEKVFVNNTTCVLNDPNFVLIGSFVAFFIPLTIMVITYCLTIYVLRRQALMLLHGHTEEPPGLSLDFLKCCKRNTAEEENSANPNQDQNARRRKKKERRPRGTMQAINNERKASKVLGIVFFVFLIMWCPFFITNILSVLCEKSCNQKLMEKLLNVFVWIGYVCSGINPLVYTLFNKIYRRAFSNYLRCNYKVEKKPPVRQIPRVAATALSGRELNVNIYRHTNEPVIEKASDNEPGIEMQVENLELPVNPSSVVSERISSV

How the values were obtained:
[1] = molecular target: 5-hydroxytryptamine receptor 2A (Homo sapiens, UniProt P28223)
[2] = molecular target: 5-hydroxytryptamine receptor 1A (Homo sapiens, UniProt P08908)
[3] = molecular target: 5-hydroxytryptamine receptor 2C (Homo sapiens, UniProt P28335)

Question: What does the source list for `O=C(CCCN1C2CCC1CN(c1ccc(Cl)cc1)CC2)c1ccc(F)cc1` (stereo not drawn)?
Answer: Ki [1]: 195 nM; Ki [2]: 2330 nM; Ki [3]: 3510 nM
